Reference: patent publication US8614290B2, “Cancer imaging and treatment” (Technische Universitat Munchen, priority 2007, dated 2013)

By UniProt entry, the sequences of proteins in these tests, tags left out.
UniProt P61073, whole entry: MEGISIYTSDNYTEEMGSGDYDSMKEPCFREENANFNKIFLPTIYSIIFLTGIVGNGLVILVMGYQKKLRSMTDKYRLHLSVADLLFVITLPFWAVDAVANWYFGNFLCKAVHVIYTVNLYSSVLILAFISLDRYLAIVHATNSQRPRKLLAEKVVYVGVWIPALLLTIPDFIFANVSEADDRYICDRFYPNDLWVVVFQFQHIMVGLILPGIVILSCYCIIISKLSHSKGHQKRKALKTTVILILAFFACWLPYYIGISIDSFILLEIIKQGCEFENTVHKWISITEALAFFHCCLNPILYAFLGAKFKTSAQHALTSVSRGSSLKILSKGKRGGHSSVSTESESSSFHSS

These compounds were tested against CXCR4 (Homo sapiens, UniProt P61073) (assay: Competitive receptor binding assay on Jurkat cells with 125I-CPCR4 as tracer). Conditions: not given.
Parameters: Jurkat cells that endogenously express the CXCR4 receptor; endogenous in cells; host or cells: Jurkat cells
Experimental: For receptor binding assays cells were resuspended in PBS/0.2% BSA. A total of 200 μl of the suspension containing 400,000 Jurkat cells were incubated with 25 μl of the tracer solution (containing 3.1 kBq, approx. 0.1 nM) and 25 μl of the diluent or the competitor at different concentrations. […] After shaking for 2 h at room temperature, the incubation was terminated by centrifugation at 1300 rpm for 5 min. Cell pellets were washed once with cold PBS followed by a second centrifugation step. Cell bound radioactivity was determined by using a gamma counter. Experiments were repeated 2-3 times in triplicates. IC50 values of the compounds were calculated by nonlinear regression using GraphPad Prism (GraphPad Prism 4.0 Software, Inc., San Diego, Calif., USA). Each data point is the average of three determinations.

Compound | IC50
C[C@@H]1NC(=O)[C@H](Cc2ccc3ccccc3c2)NC(=O)[C@H](CCCNC(=N)N)NC(=O)[C@H](CCCNC(=N)N)NC(=O)[C@@H](Cc2ccc(O)cc2)N(C)C(=O)CNC1=O [BL70, cyc[Arg-Nal-Ala-Gly-(Me)D-Tyr-Arg]] | 200 to 300 nM
C[C@@H]1NC(=O)[C@H](Cc2ccc3ccccc3c2)NC(=O)[C@H](CCCNC(=N)N)NC(=O)[C@H](CCCNC(=N)N)N(C)C(=O)[C@@H](Cc2ccc(O)cc2)N(C)C(=O)CNC1=O [BL76, cyc[Arg-Nal-Ala-Gly-(Me)D-Tyr-(Me)Arg]] | > 1000 nM
C[C@@H]1NC(=O)[C@H](Cc2ccc3ccccc3c2)NC(=O)[C@H](CCCNC(=N)N)N(C)C(=O)[C@H](CCCNC(=N)N)NC(=O)[C@@H](Cc2ccc(O)cc2)N(C)C(=O)CNC1=O [BL77, cyc[(Me)Arg-Nal-Ala-Gly-(Me)D-Tyr-Arg]] | > 1000 nM
C[C@@H]1NC(=O)[C@H](Cc2ccc3ccccc3c2)N(C)C(=O)[C@H](CCCNC(=N)N)NC(=O)[C@H](CCCNC(=N)N)NC(=O)[C@@H](Cc2ccc(O)cc2)N(C)C(=O)CNC1=O [BL78, cyc[Arg-(Me)Nal-Ala-Gly-(Me)D-Tyr-Arg]] | > 1000 nM
C[C@H]1C(=O)NCC(=O)N(C)[C@H](Cc2ccc(O)cc2)C(=O)N[C@@H](CCCNC(=N)N)C(=O)N[C@@H](CCCNC(=N)N)C(=O)N[C@@H](Cc2ccc3ccccc3c2)C(=O)N1C [BL79, cyc[Arg-Nal-(Me)Ala-Gly-(Me)D-Tyr-Arg]] | > 1000 nM
C[C@@H]1NC(=O)[C@H](Cc2ccc3ccccc3c2)NC(=O)[C@H](CCCNC(=N)N)NC(=O)[C@H](CCCNC(=N)N)NC(=O)[C@@H](Cc2ccc(O)cc2)N(C)C(=O)CN(C)C1=O [BL80, cyc[Arg-Nal-Ala-(Me)Gly-(Me)D-Tyr-Arg]] | > 1000 nM
C[C@H]1C(=O)NCC(=O)N(C)[C@H](Cc2ccc(O)cc2)C(=O)N(C)[C@@H](CCCNC(=N)N)C(=O)N[C@@H](CCCNC(=N)N)C(=O)N[C@@H](Cc2ccc3ccccc3c2)C(=O)N1C [BL88, cyc[Arg-Nal-(Me)Ala-Gly-(Me)D-Tyr-(Me)Arg]] | > 1000 nM
C[C@@H]1NC(=O)[C@H](Cc2ccc3ccccc3c2)N(C)C(=O)[C@H](CCCNC(=N)N)NC(=O)[C@H](CCCNC(=N)N)N(C)C(=O)[C@@H](Cc2ccc(O)cc2)N(C)C(=O)CNC1=O [BL89, cyc[Arg-(Me)Nal-Ala-Gly-(Me)D-Tyr-(Me)Arg]] | > 1000 nM
C[C@H]1C(=O)N(C)CC(=O)N(C)[C@H](Cc2ccc(O)cc2)C(=O)N[C@@H](CCCNC(=N)N)C(=O)N[C@@H](CCCNC(=N)N)C(=O)N[C@@H](Cc2ccc3ccccc3c2)C(=O)N1C [BL96, cyc[Arg-Nal-(Me)Ala-(Me)Gly-(Me)D-Tyr-Arg]] | > 1000 nM
C[C@@H]1NC(=O)[C@H](Cc2ccc3ccccc3c2)N(C)C(=O)[C@H](CCCNC(=N)N)NC(=O)[C@H](CCCNC(=N)N)NC(=O)[C@@H](Cc2ccc(O)cc2)N(C)C(=O)CN(C)C1=O [BL97, cyc[Arg-(Me)Nal-Ala-(Me)Gly-(Me)D-Tyr-Arg]] | > 1000 nM
C[C@@H]1NC(=O)[C@H](Cc2ccc3ccccc3c2)NC(=O)[C@H](CCCNC(=N)N)N(C)C(=O)[C@H](CCCNC(=N)N)NC(=O)[C@@H](Cc2ccc(O)cc2)N(C)C(=O)CN(C)C1=O [BL98, cyc[(Me)Arg-Nal-Ala-(Me)Gly-(Me)D-Tyr-Arg]] | > 1000 nM
C[C@H]1C(=O)NCC(=O)N(C)[C@H](Cc2ccc(O)cc2)C(=O)N[C@@H](CCCNC(=N)N)C(=O)N[C@@H](CCCNC(=N)N)C(=O)N(C)[C@@H](Cc2ccc3ccccc3c2)C(=O)N1C [BL99, cyc[Arg-(Me)Nal-(Me)Ala-Gly-(Me)D-Tyr-Arg]] | > 1000 nM
N=C(N)NCCC[C@@H]1NC(=O)[C@H](CCCNC(=N)N)NC(=O)[C@@H](Cc2ccc(O)cc2)NC(=O)CNC(=O)[C@H](Cc2ccc3ccccc3c2)NC1=O [CPCR4, cyclo[D-Tyr-Arg-Arg-Nal-Gly], reference compound] | 4 nM
CC(F)C(=O)NC[C@@H]1NC(=O)[C@H](Cc2ccc3ccccc3c2)NC(=O)[C@H](CCCNC(=N)N)NC(=O)[C@H](CCCNC(=N)N)NC(=O)[C@@H](Cc2ccc(O)cc2)NC1=O (stereo partly drawn) [Dap(FP)-8k, cyc[D-Tyr-Arg-Arg-Nal-Dap(FP)]] | 140 nM
CN1CC(=O)N(C)[C@H](Cc2ccc(O)cc2)C(=O)N[C@@H](CCCNC(=N)N)C(=O)N[C@@H](CCCNC(=N)N)C(=O)N[C@@H](Cc2ccc3ccccc3c2)C1=O [OD13, cyc[Arg-Nal-(Me)Gly-(Me)D-Tyr-Arg]] | > 1000 nM
CN1C(=O)CNC(=O)[C@H](Cc2ccc3ccccc3c2)N(C)C(=O)[C@H](CCCNC(=N)N)NC(=O)[C@H](CCCNC(=N)N)NC(=O)[C@H]1Cc1ccc(O)cc1 [OD14, cyc[Arg-(Me)Nal-Gly-(Me)D-Tyr-Arg]] | > 1000 nM

Same assay, conditions: Table 1, Nα-monomethylated cyclic pentapeptides; read-out: IC50

Compound | IC50
CN1C(=O)[C@H](CCCNC(=N)N)NC(=O)[C@H](CCCNC(=N)N)NC(=O)[C@@H](Cc2ccc(O)cc2)NC(=O)CNC(=O)[C@@H]1Cc1ccc2ccccc2c1 [OD5, cyc[D-Tyr-Arg-Arg-(Me)Nal-Gly]] | 894 nM
CN1CC(=O)N[C@H](Cc2ccc(O)cc2)C(=O)N[C@@H](CCCNC(=N)N)C(=O)N[C@@H](CCCNC(=N)N)C(=O)N[C@@H](Cc2ccc3ccccc3c2)C1=O [OD7, cyc[D-Tyr-Arg-Arg-Nal-(Me)Gly]] | 136 nM
CN1C(=O)CNC(=O)[C@H](Cc2ccc3ccccc3c2)NC(=O)[C@H](CCCNC(=N)N)NC(=O)[C@H](CCCNC(=N)N)NC(=O)[C@H]1Cc1ccc(O)cc1 [OD9, cyc[(Me)D-Tyr-Arg-Arg-Nal-Gly]] | 247 nM

Same assay, conditions: Table 4, Orn-Nδ and/or Orn-Nα-modified pentapeptides; read-out: IC50

Compound | IC50
CC(=O)NCCC[C@@H]1NC(=O)[C@@H](Cc2ccc(O)cc2)NC(=O)CNC(=O)[C@H](Cc2ccc3ccccc3c2)NC(=O)[C@H](CCCNC(=N)N)NC1=O [cyc[D-Tyr-Orn(Ac)-Arg-Nal-Gly]] | 29 ± 11 nM
N=C(N)NCCC[C@@H]1NC(=O)[C@H](CCCNCc2ccccc2)NC(=O)[C@@H](Cc2ccc(O)cc2)NC(=O)CNC(=O)[C@H](Cc2ccc3ccccc3c2)NC1=O [cyc[D-Tyr-Orn(Bz)-Arg-Nal-Gly]] | 155 ± 63 nM
CC(F)C(=O)NCCC[C@@H]1NC(=O)[C@@H](Cc2ccc(O)cc2)NC(=O)CNC(=O)[C@H](Cc2ccc3ccccc3c2)NC(=O)[C@H](CCCNC(=N)N)NC1=O (stereo partly drawn) [cyc[D-Tyr-Orn(FP)-Arg-Nal-Gly]] | 35 ± 13 nM
CNCCC[C@@H]1NC(=O)[C@@H](Cc2ccc(O)cc2)NC(=O)CNC(=O)[C@H](Cc2ccc3ccccc3c2)NC(=O)[C@H](CCCNC(=N)N)NC1=O [cyc[D-Tyr-Orn(Me)-Arg-Nal-Gly]] | 105 ± 7 nM
CN(CCC[C@@H]1NC(=O)[C@@H](Cc2ccc(O)cc2)NC(=O)CNC(=O)[C@H](Cc2ccc3ccccc3c2)NC(=O)[C@H](CCCNC(=N)N)NC1=O)C(=O)c1ccc(F)cc1 [cyc[D-Tyr-Orn(Me,FB)-Arg-Nal-Gly]] | 78 ± 25 nM
CN(CCC[C@@H]1NC(=O)[C@@H](Cc2ccc(O)cc2)NC(=O)CNC(=O)[C@H](Cc2ccc3ccccc3c2)NC(=O)[C@H](CCCNC(=N)N)NC1=O)Cc1cccc2ccccc12 [cyc[D-Tyr-Orn(Me,N1)-Arg-Nal-Gly]] | 39.7 nM
CN(CCC[C@@H]1NC(=O)[C@@H](Cc2ccc(O)cc2)NC(=O)CNC(=O)[C@H](Cc2ccc3ccccc3c2)NC(=O)[C@H](CCCNC(=N)N)NC1=O)Cc1ccc2ccccc2c1 [cyc[D-Tyr-Orn(Me,N2)-Arg-Nal-Gly]] | 34.2 nM

Same assay, conditions: Table 5, D-Orn derivatives, His, Phe; read-out: IC50

Compound | IC50
N=C(N)NCCC[C@@H]1NC(=O)[C@H](Cc2ccccc2)NC(=O)[C@@H](Cc2ccc(O)cc2)NC(=O)CNC(=O)[C@H](Cc2ccc3ccccc3c2)NC1=O [cyc[D-Tyr-Phe-Arg-Nal-Gly]] | 154 nM

Same assay, conditions: Table 6, cyclic hexapeptides; read-out: IC50

Compound | IC50
C[C@@H]1NC(=O)[C@H](C)NC(=O)[C@H](Cc2ccc3ccccc3c2)NC(=O)[C@H](CCCNC(=N)N)NC(=O)[C@H](CCCNC(=N)N)NC(=O)[C@@H](Cc2ccc(O)cc2)NC1=O [BL158, cyc[D-Tyr-Arg-Arg-Nal-Ala-Ala]] | 114 nM

Same assay, conditions: Table 8, Gly substituted by Dap; read-out: IC50

Compound | IC50
N=C(N)NCCC[C@@H]1NC(=O)[C@H](CCCNC(=N)N)NC(=O)[C@@H](Cc2ccc(O)cc2)NC(=O)[C@H](CNC(=O)c2ccc(F)cc2)NC(=O)[C@H](Cc2ccc3ccccc3c2)NC1=O [Dap(FB)-8k, cyc[D-Tyr-Arg-Arg-Nal-Dap(FB)]] | 350 nM
